The numbers were not newly measured in patent US7498161B2 (priority 2003, dated 2009), which cites them from elsewhere.

One may read the IC50 as the point on the concentration scale where inhibition reaches its midpoint.

The data set has as its system nitroreductase-expressing V79 cells. As to conditions: cited from earlier work.

As for “acyclic 4-nitrobenzyl phosphoramide mustard”, the “selective cytotoxicity toward nitroreductase-expressing V79 cells” value is reported as 167,500 ×. In addition, the IC50 (nitroreductase-expressing V79 cells) was 400 pM. Under “relative to CB1954”, the “more active than CB1954” value was “about 100 ×” and the more selective than CB1954 is 27 ×.
